From PubChem
The list is not random: actives were taken first. Their share in the collection is about 2.3%.
Nrf2 inh: Nrf2 pathway inhibition. A549 ARE-Fluc reporter, luciferase luminescence, 18-24 h. 360,000 compounds, 2.1% hits. Potency, µM (top dose mostly 46 µM), usual class: inhibitors; note: nearly all actives have a fitted effect of over 60% in size
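Two sequential reads on A549 ARE_Fluc cells exposed to compound for 18-24 h: a CellTiter-Fluor fluorescence read for viability, then a luciferase luminescence read for Nrf2/ARE activity.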
A549 tox: A549 cytotoxicity, counter-screen for Nrf2 inhibitors. 390,000 compounds, 0.16% hits. A549 ARE-Fluc cells, CellTiter-Fluor viability, 18-24 h. AID 504648. Potency, µM (top dose mostly 46 µM), most hits filed as inhibitors
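A549 ARE_Fluc cells in 5% FBS OPTI-MEM were exposed to compounds in concentration-response for 18-24 h at 37 deg C. Viability was read by CellTiter-Fluor fluorescence (Ex 405/Em 525) after 30 min, before the luciferase read.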
Mito fusion yeast: mitochondrial division inhibition or fusion activation; S. cerevisiae fusion-defective mutant growth rescue, CellTiterGlo 48 h; Potency, µM (doses to about 46.1 µM), actives largely listed as activators; 320,000 compounds, 0.23% hits; AID 485298; note: nearly all actives have a fitted effect of over 45% in size
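Read-out: ATP-based luminescence (CellTiterGlo, 10 min ambient) reporting growth of fusion-defective ts yeast after 48 hours at 37C on glycerol/ethanol YPEG medium in the presence of compound.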
Nrf2 ARE act: activates Nrf2 signaling. AID 624171. Potency, µM (highest dose often 46.1 µM), most hits filed as activators. 410,000 compounds, 0.31% hits. AREc32 ARE-luciferase reporter (MCF7-derived line), luminescence, 24 h; note: nearly all actives have a fitted effect of over 65% in size
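ARE activation measured as luciferase luminescence (Steady-Glo, 30 min RT) in AREc32_Fluc cells after 24 hr compound exposure at 37 deg C, 5% CO2; cells seeded overnight at 1000/well in OPTI-MEM, 5% FBS.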
miR-21 reporter: miR-21 reporter, rising signal. 340,000 tested, under 10 active. Potency, µM (highest dose often 38.3 µM). HeLa miR-21 FLuc reporter, luciferase, 48 h. AID 2288; active = well fitted rising curve with a large enough effect; inconclusive = small, poorly fitted or top-dose-only effect; inactive = no such curve, though single readings can be large or run the other way;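 further: miR-21 action dims this reporter so a rising signal means less miR-21 action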
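Luminescence from a firefly luciferase reporter carrying a miR-21 binding site downstream, stably expressed under a CMV promoter in HeLa cells that make miR-21 endogenously, reports miRNA modulation after 48 h compound exposure up to approximately 40uM final.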
GRP78 ERSR act: ER stress response induction in glioma; 420,000 compounds, 0.02% hits; U87-MG GRP78 promoter luciferase reporter, 16 h; AID 602332; Potency, µM, actives largely listed as activators; note: series mostly up to about 76 µM; nearly all actives have a fitted effect of over 35% in size
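Stably transfected U87-MG glioma cells carrying a GRP78-based luciferase sensor; 16 h compound incubation. Luminescence end-point read 10 min after Bright-Glo addition at room temperature.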
Each line names hits and unclear results; the compound was inactive in the other large screens. Unless noted, calls come from the whole dose curve; as a rule, active = well fitted curve in the direction sought with a large enough effect; inconclusive = small, poorly fitted or top-dose-only effect, or another doubt; inactive = no such curve, though single readings can be large; an effect the other way counts as inactive or inconclusive.

O=C(CSc1nc2ccccc2n1Cc1ccccc1)N/N=C/c1ccco1	Nrf2 inh 8.2µM, Nrf2 ARE act inconclusive
CCOC(=O)c1scc(-c2ccc(C)cc2)c1S(=O)(=O)N1CCN(c2ccccc2)CC1	none (no result: Mito fusion yeast)
CN1[C@@H]2CC[C@H]1CC(OC(=O)[C@@H](CO)c1ccccc1)C2 (stereo partly drawn)	none (no result: Nrf2 inh, A549 tox, Mito fusion yeast, Nrf2 ARE act, miR-21 reporter)
Cc1ccc(-c2nnc(NCc3nc4ccccc4[nH]3)c3ccccc23)cc1S(=O)(=O)N1CCCCC1	none
Cc1oc(-c2ccccc2F)nc1CS(=O)(=O)CC(=O)NC(C)CCc1ccccc1 (stereo not drawn)	Nrf2 inh inconclusive, Mito fusion yeast 11µM
Cc1cccc(N2CCN(C(=O)CS(=O)(=O)Cc3nc(-c4ccccc4C)oc3C)CC2C)c1 (stereo not drawn)	Nrf2 inh 23µM (no result: Mito fusion yeast)
Cc1ccc(-c2nc(CS(=O)(=O)CC(=O)N3CC(C)CC(C)C3)c(C)o2)cc1 (stereo not drawn)	Nrf2 inh 21µM
Cc1cccc(N2CCN(C(=O)CS(=O)(=O)Cc3nc(-c4ccccc4F)oc3C)CC2C)c1 (stereo not drawn)	Nrf2 inh 16µM
Cc1ccc(-c2nc(CS(=O)(=O)CC(=O)N3CCN(C)CC3)c(C)o2)cc1	none
Cc1cccc(CSCc2ccc(C(=O)NC(C)C)o2)c1	Nrf2 inh 21µM
Cc1ccc(CNC(=O)c2ccc(CSCc3cccc(C)c3)o2)cc1	none (no result: Nrf2 inh, Mito fusion yeast)
Cc1nnc(SC(=O)N2c3ccccc3Sc3ccccc32)s1	Nrf2 inh 13µM, Nrf2 ARE act inconclusive
COc1ccc(S(=O)(=O)N2CCOCC2)cc1NC(=O)Cc1c(Cl)cccc1Cl	none
COc1ccc(S(=O)(=O)N2CCOCC2)cc1NC(=O)CN(C)Cc1c(F)cccc1Cl	Nrf2 inh 21µM
O=C1c2cccc(NCCNCCO)c2C(=O)c2cccc(NCCNCCO)c21	Nrf2 inh 10µM, A549 tox 18µM (no result: Mito fusion yeast, miR-21 reporter)
O=C(Nc1nc(-c2ccccc2)cs1)c1ccco1	Nrf2 ARE act 14µM
Cc1ccc(-c2csc(NC(=S)NC(=O)/C=C/c3ccco3)n2)cc1	A549 tox inconclusive (no result: Nrf2 inh)
COCCN(C(=O)c1ccco1)c1nc(-c2ccc(OC)cc2)cs1	none (no result: Nrf2 inh, A549 tox, Mito fusion yeast, miR-21 reporter)
O=C(/C=C\c1ccco1)Nc1nc(-c2ccc3ccccc3c2)cs1	Nrf2 inh 15µM
O=C(Nc1nc(-c2ccco2)cs1)c1ccccc1	Nrf2 ARE act inconclusive (no result: Nrf2 inh)
COCCN(C(=O)c1ccco1)c1nc(-c2ccccc2)cs1	Nrf2 inh inconclusive, Nrf2 ARE act 10µM
COc1ccc(-c2csc(NC(=O)c3ccco3)n2)cc1	Nrf2 inh inconclusive, Mito fusion yeast inconclusive
Cc1ccc(-c2csc(NC(=O)c3ccc(-c4ccccc4)cc3)n2)o1	Nrf2 inh 2.9µM
O=C(CSc1nnc2scc(-c3ccccc3)n12)Nc1nsc(-c2ccccc2)n1	Nrf2 inh 16µM
Cc1ccc(-c2csc3nnc(SCC(=O)Nc4nsc(-c5ccccc5)n4)n23)cc1	Nrf2 inh 21µM
O=C(Nc1nnc(S(=O)(=O)N2CCc3ccccc32)s1)c1ccccc1	Nrf2 inh inconclusive (no result: Mito fusion yeast)
N#Cc1ccc(OCC(O)CN2CCN(CC(O)COc3ccc(C#N)cc3)CC2)cc1 (stereo not drawn)	Nrf2 inh inconclusive
N#Cc1ccc(OCC(O)CN2CCN(c3ncc(C(F)(F)F)cc3Cl)CC2)cc1 (stereo not drawn)	Nrf2 inh 18µM, miR-21 reporter inconclusive
Cc1cccc(C)c1Nc1c(-c2ccsc2)nc2ccccn12	Nrf2 inh 18µM (no result: Mito fusion yeast)
COc1ccccc1CC(=O)Nc1nc(-c2ccc(F)c(F)c2)cs1	Nrf2 inh 23µM
COc1ccc(-c2csc(NC(=O)Cc3ccccc3F)n2)cc1OC	Nrf2 inh 21µM, A549 tox inconclusive
O=C(Cc1ccccc1F)Nc1nc(-c2ccc(F)cc2)cs1	none
COc1ccc(-c2csc(NC(=O)CSCc3c(C)noc3C)n2)cc1OC	Nrf2 inh 23µM
COc1ccc(CC(=O)Nc2nc(-c3ccc(OC)c(OC)c3)cs2)cc1OC	Nrf2 inh 15µM, A549 tox inconclusive
Cc1ccc(S(=O)(=O)CCC#N)cc1	none
CO[C@H]1COC(=O)[C@H](C)NC(=O)C/C=C\[C@@H](C)[C@@H](NS(=O)(=O)c2ccc(C)cc2)COC(=O)[C@H](OCc2ccccc2)/C=C\[C@@H]1C	none (no result: Nrf2 inh, A549 tox, Mito fusion yeast, Nrf2 ARE act, miR-21 reporter)
COC(=O)c1c(-c2ccc(C)cc2)csc1NC(=O)Cc1ccc(OC)c(OC)c1	Nrf2 inh 18µM
COc1ccc2c(CNC3CCCCCC3)c(C(=O)O)n(Cc3cccc(F)c3)c2c1	none (no result: Mito fusion yeast)
O=C(Cc1ccc(NC2=NC3CS(=O)(=O)CC3S2)cc1)Nc1ccc(F)cc1 (stereo not drawn)	none
CNc1nc(N/N=C/c2cc3c(cc2[N+](=O)[O-])OCO3)nc(Nc2ccccc2)n1	Nrf2 inh 18µM, A549 tox inconclusive, miR-21 reporter inconclusive
CNc1nc(N/N=C/c2cc([N+](=O)[O-])ccc2F)nc(Nc2ccccc2)n1	none (no result: Mito fusion yeast, miR-21 reporter)
O=C(NC1CCCCCC1)C(=S)N1CCOCC1	none
S=C(NC1CCCCC1)N1CCOCCOCCN(C(=S)NC2CCCCC2)CCOCCOCC1	Nrf2 inh 16µM, A549 tox inconclusive
COc1ccc(N(CC(=O)N2CCCCC2)S(=O)(=O)c2ccc(OC)c(OC)c2)cc1	none (no result: Mito fusion yeast)
O=C(CN1C(=O)c2ccccc2S1(=O)=O)N1CCN(c2ccc(F)cc2)CC1	none
CC(=O)C1=C(C)OC(N)=C(C#N)C1c1cccc([N+](=O)[O-])c1 (stereo not drawn)	none
CC(=O)C1=C(C)OC(N)=C(C#N)C1c1cc([N+](=O)[O-])ccc1Cl (stereo not drawn)	Nrf2 ARE act 13µM
COc1cc(C=O)ccc1OCCCOc1ccccc1[N+](=O)[O-]	none
COc1cc(C=O)ccc1OCCCOc1ccccc1C(=O)O	Nrf2 inh 8.2µM, miR-21 reporter inconclusive
COc1cc(C=O)ccc1OCCOc1ccccc1[N+](=O)[O-]	Nrf2 ARE act 13µM
CCn1cc(C(=O)Nc2ccc(C)c([N+](=O)[O-])c2)cn1	none
OC[C@@H]1CN(CCN2CCOCC2)C[C@H](n2cnc3c(NCc4ccco4)ncnc32)O1	none (no result: Nrf2 inh, A549 tox, Mito fusion yeast, miR-21 reporter)
N#Cc1ccc(OCC(=O)N2CCN(S(=O)(=O)c3ccc(Cl)s3)CC2)cc1	Nrf2 inh 23µM (no result: miR-21 reporter)
COc1ccc(OCC(=O)N2CCN(S(=O)(=O)c3ccc(Cl)s3)CC2)cc1	none (no result: miR-21 reporter)
CC(C)Cc1nc2cc(NS(=O)(=O)N(C)C)cc(C(=O)N3CCN(c4ccccc4)CC3)c2n1C	none (no result: Nrf2 inh, A549 tox, Mito fusion yeast, Nrf2 ARE act, miR-21 reporter)
Cc1cccc(NC2=C/C(=N/S(=O)(=O)c3cccs3)c3ccccc3C2=O)c1	Nrf2 inh inconclusive, A549 tox inconclusive, miR-21 reporter inconclusive
